From PubChem BioAssay AID1992 (Sanford-Burnham Center for Chemical Genomics, 2009) come the findings set out here.

Protein sequences, listed by entry. Tags and fused reporters are not part of them.
UniProt P51452, whole entry: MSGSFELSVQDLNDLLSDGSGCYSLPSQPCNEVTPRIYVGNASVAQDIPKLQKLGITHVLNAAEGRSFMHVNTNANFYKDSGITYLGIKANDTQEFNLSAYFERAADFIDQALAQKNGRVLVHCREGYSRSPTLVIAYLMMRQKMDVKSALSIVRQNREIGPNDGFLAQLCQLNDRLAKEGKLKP

Structures are written as SMILES. Only a part is listed here, and it is no random draw. Some tests of the compounds listed are not included; inactive here does not mean inactive elsewhere. Calls of active or inactive are those of the source. Rule as the data show it: active = inhibition above about 60%; inactive = the rest.

The target in the assay is Dual specificity protein phosphatase 3 (Homo sapiens) (UniProt P51452). In words: VHR1 phosphatase inhibitors, primary screen, biochemical, colorimetric, HTS (AID 1992). The note with it: recombinant VHR phosphatase, colorimetric substrate read-out; at 20 µM; hits give high values.
In general, inhibition refers to the relative decrease from the control value, in per cent. Turning to `COc1ccc(OC)c(C=C(C#N)C#N)c1`, the inhibition was inactive: -10.6%.
